Antibody variant affinities, Ab-14 light chain, assay B

Source: Li et al. 2023 (doi:10.1038/s41467-023-39022-2), MIT Lincoln Laboratory and A-Alpha Bio; data file from the FLAb repository.

Target peptide (SARS-CoV-2 spike, HR2 region): PDVDLGDISGINAS

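The starting antibody came from a phage panning campaign against this peptide. These sequences belong to a second round, designed from the earlier measurements on random variants of the parent. Group labels follow the data file (En: ensemble of fine-tuned language models; GP: Gaussian process model; HC: hill climbing; Gen: genetic algorithm; Gibbs: Gibbs sampling; a sequence that several methods proposed may carry one label only). The scFvs were displayed on barcoded MATa yeast, the peptide on MATalpha yeast. After mating in shaken culture at 30 °C for 16 h, diploids were selected and their barcode pairs sequenced. Scores were corrected for input abundance and mapped to Kd with protein pairs of known affinity run in the same pool. There are six technical replicates.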

Each scFv is VH, a (GGGGS)3 linker, VL, as in the parent Ab-14, and differs from it in the CDRs of the light chain only.
VH: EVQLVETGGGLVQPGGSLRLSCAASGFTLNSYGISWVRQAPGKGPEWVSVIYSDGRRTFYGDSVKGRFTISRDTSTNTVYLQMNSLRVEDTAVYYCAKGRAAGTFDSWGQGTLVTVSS
VL: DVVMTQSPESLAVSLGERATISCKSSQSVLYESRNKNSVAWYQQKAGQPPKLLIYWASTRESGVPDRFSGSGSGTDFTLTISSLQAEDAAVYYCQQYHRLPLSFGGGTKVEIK

Variants are written as CDR1, CDR2 and CDR3 of the light chain (limits as in the source). Parent: KSSQSVLYESRNKNSVA, WASTRES, QQYHRLPLS.
Variants here have more than six changes.
The Kd shown is the geometric mean over detected replicates; a lower Kd is a better binder.
"no signal" marks a missing value. The strain was present, yet no cells mated with the target were sequenced in any replicate, which points to weak or no binding.
Entries are sorted by rising average, undetected variants last.
The authors averaged sequences with at least three values out of six and counted those with two or fewer as poor binders.
The range of this assay differs from that of the first round, and the authors advise against merging the two.
Three control strains display no target. For all light chain designs, 4% of the pairings with them gave a signal, with a median of 430 nM and one signal in twenty below 38 nM, so weak values seen in few replicates may be background.
Of ten entries with the parent sequence, four were seen in most replicates (averages 2.2 nM to 240 nM), three in one and three in none, so single entries are noisy.

KLSQSNDYEDRNANNVA / NASQRES / QQYHRLPLS [GP_Gibbs]: 560 pM (6 of 6 replicates).
KISESWLYEPLNSNSVA / NASTRQM / QQYHRLPLS [GP_Gibbs]: 1.1 nM (6 of 6 replicates).
KLMYSWPGESRNKNSVA / DASTRSS / QQYHRLPLS [GP_Gibbs]: 1.3 nM (6 of 6 replicates).
KIGMTLNQLYQKNNNVA / DLVEREN / QQYHRLPLS [En_Gen]: 1.5 nM (6 of 6 replicates).
KFMQSWLYESLNKNSVA / NASQREH / QQYHRLPLS [GP_Gibbs]: 1.5 nM (6 of 6 replicates).
TLTQSVGMESHAKNSVA / DLSTRGS / QQYHRLPLS [En_HC]: 1.5 nM (6 of 6 replicates).
KVNQLMNLEQMNIKSVA / HTSTREN / QQYHRLPLS [En_HC]: 1.5 nM (6 of 6 replicates).
KLNMMTGLETKMRNSVA / QMTTREE / QQYNHLPLS [En_Gen]: 1.6 nM (6 of 6 replicates).
KVPGSNDYESRNKNSVA / HASTRES / QDYHRLPLS [GP_Gibbs]: 1.6 nM (6 of 6 replicates).
HISQSFMTESVHRNSVA / HQSTREQ / QQYDRLPLS [En_HC]: 2.9 nM (6 of 6 replicates).
KVSQSHPYEERNDNNVA / QASYRES / QQYHRLPLS [GP_Gibbs]: 3.0 nM (6 of 6 replicates).
TITQSMLMTSHQMNSVA / HASTRED / QQYHRLPLI [En_HC]: 3.0 nM (6 of 6 replicates).
KVEMSQLYESRNKNSVA / NASLRMS / QQYHRLPLS [GP_Gibbs]: 3.5 nM (6 of 6 replicates).
KVSTSELEESRNKGSVA / WASLREE / QQYHRLPLS [GP_Gibbs]: 3.6 nM (6 of 6 replicates).
MIGDLTMYGSRNVNSVA / DLSTRGS / QQYDRLPLS [En_HC]: 3.9 nM (6 of 6 replicates).
SFDLTKSGMENERYSIA / ETSTLMT / QDYHRLPLY [En_Gibbs]: 4.5 nM (6 of 6 replicates).
KLSYGNLYESRNKNSVA / EASTRCQ / QQYHRLPLS [GP_Gibbs]: 5.2 nM (6 of 6 replicates).
QFFSRFGQLTEISQAVA / DATEVAD / QQYMHLPLT [En_Gibbs]: 5.4 nM (6 of 6 replicates).
QLQLQPQTGANAQHSIA / DVSEKDM / QQYARLPLH [En_Gibbs]: 5.8 nM (6 of 6 replicates).
VWQMDHLGQGQYQNNIA / NQDLRTA / QQYYMLPLV [En_Gibbs]: 8.1 nM (6 of 6 replicates).
MVSQLMLWGLHAKNSIA / EAETRLN / QQYDRLPLE [En_Gen]: 9.1 nM (6 of 6 replicates).
MIAQGLRGVGRNKNSVA / NAQTRAS / QHYHRLPLS [En_HC]: 12 nM (6 of 6 replicates).
KLYSINGTEKVHGNNVA / EMETRER / QQYNRLPLA [En_Gen]: 12 nM (6 of 6 replicates).
KLSVVTGHQLMSKDNVA / EMETREN / QQYDRLPLS [En_Gen]: 13 nM (3 of 6 replicates).
TVSQVHEMLSHAKNSVA / DMNTRES / QQYDRLPLS [En_HC]: 14 nM (6 of 6 replicates).
TISQMWNMGQFAINSVA / QASERNT / QQYDRLPLI [En_Gen]: 15 nM (6 of 6 replicates).
KLSMVTGHMSMEKNNVA / EMETREK / QQYNRLPLA [En_Gen]: 20 nM (5 of 6 replicates).
KISQNMGETQKNKHSVA / EVSLVPS / QQYWRLPLS [En_HC]: 22 nM (2 of 6 replicates).
KLVGVDDNDPNPSHAIA / DVSTLDN / QQYHRLPLD [En_Gibbs]: 24 nM (6 of 6 replicates).
KISYMGEYFSTNHSAIA / QASTREE / QQYHRLPLS [En_HC]: 25 nM (6 of 6 replicates).
HMSMLTLQGLRHRNAVA / QMTTREN / QQYDRLPLS [En_Gen]: 27 nM (5 of 6 replicates).
HISTSMRYQSSLKNAIA / NAQTRES / QQYHRLPLS [En_HC]: 36 nM (6 of 6 replicates).
KLSQFVGGESRNKSSLA / DNSTRES / QQYHRLPLS [En_HC]: 38 nM (6 of 6 replicates).
IIYGSMLMESRNKNSVA / NAETREY / QHYDRLPLS [En_HC]: 48 nM (6 of 6 replicates).
MLSQMWGTGMKASNSVA / QASVRFN / QQYHRLPLI [En_Gen]: 65 nM (3 of 6 replicates).
TLEQLVFPMGKDWHSIA / NATTLLA / QQYYYLPLM [En_Gibbs]: 74 nM (6 of 6 replicates).
IVSQLMLWGMHATNSIA / EAQTRLN / QQYDRLPLI [En_Gen]: 160 nM (2 of 6 replicates).
KISQMVKVGATHNNSIA / EEVTRAN / QQYHRLPLA [En_Gen]: 200 nM (4 of 6 replicates).
KLLQAVLGETYNKNSVA / HNSTRED / QEYARLPLS [En_HC]: 220 nM (2 of 6 replicates).
KIYNMTGFQSRNADSIA / DNSTRGR / QQYHRLPLS [En_HC]: 400 nM (4 of 6 replicates).
KVSEFMRGLMSRKDSIA / DNTTRNH / QQYDRLPLS [En_Gen]: 450 nM (3 of 6 replicates).
YISMRLDMSDDIQYAVA / DANIATA / QDYFRLPLA [En_Gibbs]: 880 nM (2 of 6 replicates).
MLSDIVKMGSRNTNSVA / DNSTRGA / QQYDRLPLS [En_HC]: 1.1 µM (4 of 6 replicates).
MISQLMNMGQFAINSVA / QASLRYN / QQYDRLPLA [En_Gen]: no signal (0 of 6 replicates).